# Results from PubChem BioAssay AID493098 (Sanford-Burnham Center for Chemical Genomics, 2011).
# The chains behind the UniProt entries cited, without tags or fusion partners. Where a name states a change or a piece, a line headed by the entry shows the natural chain unless it says otherwise.
# UniProt P51684: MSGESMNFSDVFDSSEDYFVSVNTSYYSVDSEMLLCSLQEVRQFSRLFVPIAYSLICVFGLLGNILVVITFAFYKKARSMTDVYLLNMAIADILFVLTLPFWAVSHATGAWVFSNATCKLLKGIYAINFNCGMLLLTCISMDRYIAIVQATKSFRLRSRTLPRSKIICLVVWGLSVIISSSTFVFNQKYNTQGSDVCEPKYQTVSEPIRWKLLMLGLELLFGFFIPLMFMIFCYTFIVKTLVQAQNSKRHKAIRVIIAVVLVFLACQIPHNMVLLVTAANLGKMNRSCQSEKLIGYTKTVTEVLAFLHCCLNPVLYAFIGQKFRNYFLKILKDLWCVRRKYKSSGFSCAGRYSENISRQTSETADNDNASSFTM
# Only a part is listed here, and it is no random draw. The source made the active and inactive calls.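 The calls were made as follows: active = compounds whose inhibition of the agonist-driven luminescence signal at 20 µM reaches about 50% (limit read from the data); inactive = the rest.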
# Target: C-C chemokine receptor type 6 (Homo sapiens) (UniProt P51684)
# Test: CCR6 receptor antagonists, primary screen, cell-based, CHO-K1, luminescence, beta-arrestin, uHTS (AID 493098);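 also: cells stimulated with CCL20 at 14 nM final; plate controls were DMSO with CCL20 for no effect and DMSO without agonist for full effect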
# Settings: CHO-K1 CCR6 PathHunter beta-arrestin, CCL20-stimulated, at 20 µM, active compounds read high
row,Compound,inhibition
1,O=C(Nc1cc([As](=O)(O)O)ccc1O)c1ccccc1,inactive: -1.24%
2,O=P1(N(CCCl)CCCl)OCCCS1 (configuration not stated),inactive: 5.4%
3,O=C(O)CNc1ccc([As](=O)(O)O)cc1,inactive: -1.26%
4,O=[N+]([O-])c1cccc(NC2=NCC(CBr)S2)c1 (configuration not stated),inactive: 3.36%
5,COC(=O)C1(C)COP(=O)(Nc2ccccc2)OC1 (configuration not stated),inactive: 5.85%
6,O=[N+]([O-])c1ncn(CCn2ncnc2[N+](=O)[O-])n1,inactive: -5.07%
7,CC(C)(C)C(=O)NC(Sc1ccncn1)C(Cl)(Cl)Cl (configuration not stated),inactive: 4.77%
8,CCc1nc2c(n1)c1c(non1O)c1c2no[n+]1[O-],inactive: 10.6%
9,O=[N+]([O-])c1cc([N+](=O)[O-])c(CCNc2ccccc2)c([N+](=O)[O-])c1,inactive: 13.8%
10,Cc1ccc(NP(=O)(Oc2ccccc2)Oc2ccccc2)nc1,inactive: 9.04%
11,O=[N+]([O-])c1cccc2n[nH]nc12,inactive: 4.03%
12,CC(=O)N1C2C3N(C(C)=O)C1C1N(C(C)=O)C(C(N1C(C)=O)N3C(C)=O)N2C(C)=O,inactive: 2.75%
13,COc1ccc(C2=NCC(CBr)S2)cc1 (configuration not stated),inactive: 8.5%
14,CC1CCN(C(=O)Oc2c(Cl)cc(Cl)c3cccnc23)CC1,inactive: 19.3%
15,CN(C)C(=O)OCCc1n(C)cc[n+]1C,inactive: -16.1%
16,CC(C)=N/N=C(\N)N[N+](=O)[O-],inactive: 0.88%
17,CCN(/C(=N/P(=O)(N1CCOCC1)N1CCOCC1)N1CCOCC1)c1ccc(OC)cc1,inactive: -2.38%
18,C[N+]1=C2C=CC=CC=C2SC12C([N+](=O)[O-])=CC([N+](=O)[O-])=C[C-]2[N+](=O)[O-] (configuration not stated),active: 95%
19,Nc1ccc([As](=O)(O)c2ccc(N)cc2)cc1,inactive: 11.6%
20,Clc1ccc(Cl)c(NC2=NCC(CBr)S2)c1 (configuration not stated),inactive: 16.1%
21,CN1CCCC(OC(=O)C(c2ccccc2)c2ccccc2)C1 (configuration not stated),inactive: -9.28%
22,Cc1ccc(OP(=O)(Nc2nccs2)Oc2ccc(C)cc2)cc1,inactive: 13.2%
23,COc1ccccc1OP(=O)(Nc1ccc(C)cn1)Oc1ccccc1OC,inactive: 1.74%
24,Cc1ccc(N/C(=N/P(=O)(N2CCOCC2)N2CCOCC2)N2CCOCC2)cc1,inactive: 2.17%
25,CN(C(=O)Cc1ccc(Cl)c(Cl)c1)[C@H]1CCCC[C@H]1N1CCCC1,inactive: 11.9%
26,NC(=O)c1cc([N+](=O)[O-])cc([N+](=O)[O-])c1N,inactive: -14.6%
27,O=C(NC(Sc1ccncn1)C(Cl)(Cl)Cl)c1ccccc1 (configuration not stated),inactive: -4.6%
